Earlier results as cited in US9108900B2, “Method of treating diseases that respond to therapy by dopamine or dopamine agonists” (UCB Pharma GmbH, priority 2003, dated 2015).

The chains behind the UniProt entries cited, without tags or fusion partners.
UniProt P35462, whole entry: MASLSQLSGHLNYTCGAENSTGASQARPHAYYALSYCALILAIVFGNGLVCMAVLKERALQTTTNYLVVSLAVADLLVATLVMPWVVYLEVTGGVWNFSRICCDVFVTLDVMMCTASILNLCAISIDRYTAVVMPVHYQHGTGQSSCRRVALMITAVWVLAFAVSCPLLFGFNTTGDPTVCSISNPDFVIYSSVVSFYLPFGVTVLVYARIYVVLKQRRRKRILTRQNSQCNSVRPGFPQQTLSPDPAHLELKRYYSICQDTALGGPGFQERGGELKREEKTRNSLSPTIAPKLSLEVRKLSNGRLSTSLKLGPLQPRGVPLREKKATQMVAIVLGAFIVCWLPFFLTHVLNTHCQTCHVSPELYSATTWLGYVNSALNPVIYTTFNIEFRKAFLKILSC

Biological target: D3 receptor (Homo sapiens, UniProt P35462)
Details: Hacking & Stark, ChemBioChem 2002, 947; cited from earlier work

CCCNC1CCc2c(OC)cccc2C1C (centres unmarked) [AJ76]
D3 preference in comparison to (S)-2-N-propylamino-5-hydroxytetralin: reduced D3 preference

CCCN(CCC)[C@@H]1CCc2c(OC)cccc2[C@@H]1C [UH232]
D3 preference in comparison to (S)-2-N-propylamino-5-hydroxytetralin: reduced D3 preference
